From patent publication US6894053B2, “Serotonergic agents with long-acting in vivo effects” (Wyeth, priority 2001, dated 2005) come the findings set out here.

The chains behind the UniProt entries cited, without tags or fusion partners.
UniProt P19327, whole entry: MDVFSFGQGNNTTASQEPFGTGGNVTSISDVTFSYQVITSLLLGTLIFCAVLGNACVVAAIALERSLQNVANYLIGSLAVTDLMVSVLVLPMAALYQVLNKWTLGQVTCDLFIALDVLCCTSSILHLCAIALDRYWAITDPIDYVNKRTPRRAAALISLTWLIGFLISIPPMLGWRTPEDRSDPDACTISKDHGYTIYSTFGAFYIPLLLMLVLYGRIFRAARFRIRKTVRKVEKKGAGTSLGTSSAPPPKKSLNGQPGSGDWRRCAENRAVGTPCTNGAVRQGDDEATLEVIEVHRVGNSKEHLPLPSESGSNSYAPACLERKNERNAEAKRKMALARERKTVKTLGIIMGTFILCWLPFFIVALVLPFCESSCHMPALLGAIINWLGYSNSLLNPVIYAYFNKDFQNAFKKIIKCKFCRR

The experiment has as its target T1, 5-HT1A (Rattus norvegicus, UniProt P19327).
T1 construct: from tissue; host or cells: rat brain (cortex and hippocampus membranes in the ex vivo assay; whole animal in the behavioural model)
Briefly: Fixed Responding Model (fixed-ratio 30 food schedule), antagonism of 8-OH-DPAT. To be noted: 8-OH-DPAT 1 mg/kg sc alone. Type of experiment: in vivo. On the procedure: The ability of the compounds of this invention to function in vivo as 5-HT1A antagonists was assessed in rats using a Fixed Responding Model (Blackman, D., in, “Operant Conditioning: An Experimental Analysis of Behavior”, J. Butcher, Ed., Methuen and Co., Ltd., London). In this model rats are trained to respond (lever pressing) under a fixed-ratio 30 schedule of food presentation in order to receive a food pellet reinforcer. Administration of the 5-HT1A agonist 8-OH-DPAT reduces the response rate observed from administration of vehicle (Table 3). 5-HT1A antagonist activity is assessed by determining the test compound's ability to antagonize this decrease in response rate induced by administration of the agonist.
This long-lasting effect makes the compounds of this invention especially useful in the treatment of chronic diseases such as those described above. Additionally, the long-lasting effects of the compounds of this invention make them useful as biological tools for the study of the role and effects of 5-HT1A antagonism both in vitro and in vivo.

Regarding `CCCN(CCC)C1CCc2cccc(O)c2C1` (stereo not shown) [Example 8-OH-DPAT, 8-OH-DPAT, reference compound], the “Response Rate” value is listed as 0.5 ± 0.2 responses/second.
